Laboratory results: article PMC12238359 (Scientific Reports, 2025)

System: HepG2 cells
Experiment: Annexin V-FITC/PI apoptosis analysis
Type: cell-based
Settings: 0.5 µM, 48 h

O=C(CCCCCCC(=O)Nc1ccccc1)NO [SAHA, Vorinostat, reference compound]
apoptosis of HepG2 cells: 21%
